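These data come from cells grown in 96-well plates and exposed to compound for 48 hours at five concentrations. Here, GI50 denotes the concentration required for 50% inhibition of growth. TGI marks complete inhibition of growth.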
Key:
Assay in all cases: NCI-60 cell line screen, 48 h
786-0 renal = tested on: 786-0 renal
A498 renal = tested on: A498 renal
A549 NSCLC = tested on: A549 NSCLC
ACHN renal = tested on: ACHN renal
BT-549 breast = tested on: BT-549 breast
CAKI-1 renal = tested on: CAKI-1 renal
CCRF-CEM leukemia = tested on: CCRF-CEM leukemia
COLO 205 colon = tested on: COLO 205 colon
DU-145 prostate = tested on: DU-145 prostate
EKVX NSCLC = tested on: EKVX NSCLC
HCC-2998 colon = tested on: HCC-2998 colon
HCT-116 colon = tested on: HCT-116 colon
HCT-15 colon = tested on: HCT-15 colon
HL-60(TB) leukemia = tested on: HL-60(TB) leukemia
HOP-62 NSCLC = tested on: HOP-62 NSCLC
HOP-92 NSCLC = tested on: HOP-92 NSCLC
HS 578T breast = tested on: HS 578T breast
HT29 colon = tested on: HT29 colon
IGROV1 ovarian = tested on: IGROV1 ovarian
K-562 leukemia = tested on: K-562 leukemia
KM12 colon = tested on: KM12 colon
LOX IMVI melanoma = tested on: LOX IMVI melanoma
M14 melanoma = tested on: M14 melanoma
MALME-3M melanoma = tested on: MALME-3M melanoma
MCF7 breast = tested on: MCF7 breast
MDA-MB-231 breast = tested on: MDA-MB-231 breast
MDA-MB-435 = tested on: MDA-MB-435
MDA-N = tested on: MDA-N
MOLT-4 leukemia = tested on: MOLT-4 leukemia
NCI-H226 lung = tested on: NCI-H226 lung
NCI-H23 lung = tested on: NCI-H23 lung
NCI-H322M lung = tested on: NCI-H322M lung
NCI-H460 lung = tested on: NCI-H460 lung
NCI-H522 lung = tested on: NCI-H522 lung
NCI/ADR-RES ovarian = tested on: NCI/ADR-RES ovarian
OVCAR-3 ovarian = tested on: OVCAR-3 ovarian
OVCAR-4 ovarian = tested on: OVCAR-4 ovarian
OVCAR-5 ovarian = tested on: OVCAR-5 ovarian
OVCAR-8 ovarian = tested on: OVCAR-8 ovarian
PC-3 prostate = tested on: PC-3 prostate
RPMI-8226 leukemia = tested on: RPMI-8226 leukemia
RXF 393 renal = tested on: RXF 393 renal
SF-268 CNS = tested on: SF-268 CNS
SF-295 CNS = tested on: SF-295 CNS
SF-539 CNS = tested on: SF-539 CNS
SK-MEL-2 melanoma = tested on: SK-MEL-2 melanoma
SK-MEL-28 melanoma = tested on: SK-MEL-28 melanoma
SK-MEL-5 melanoma = tested on: SK-MEL-5 melanoma
SK-OV-3 ovarian = tested on: SK-OV-3 ovarian
SN12C renal = tested on: SN12C renal
SNB-19 CNS = tested on: SNB-19 CNS
SNB-75 CNS = tested on: SNB-75 CNS
SR leukemia = tested on: SR leukemia
SW-620 colon = tested on: SW-620 colon
T-47D breast = tested on: T-47D breast
TK-10 renal = tested on: TK-10 renal
U251 CNS = tested on: U251 CNS
UACC-257 melanoma = tested on: UACC-257 melanoma
UACC-62 melanoma = tested on: UACC-62 melanoma
UO-31 renal = tested on: UO-31 renal

Structure (SMILES): CC(COC(=S)OCC(C)([N+](=O)[O-])[N+](=O)[O-])([N+](=O)[O-])[N+](=O)[O-]
- GI50 (786-0 renal): 39.8 µM
- TGI (786-0 renal): > 100 µM
- GI50 (A498 renal): > 100 µM
- TGI (A498 renal): > 100 µM
- GI50 (A549 NSCLC): 41.1 µM
- TGI (A549 NSCLC): > 100 µM
- GI50 (ACHN renal): 33.1 µM
- TGI (ACHN renal): > 100 µM
- GI50 (BT-549 breast): 20.5 µM
- TGI (BT-549 breast): 37.7 µM
- GI50 (CAKI-1 renal): 20.9 µM
- TGI (CAKI-1 renal): 60.1 µM
- GI50 (CCRF-CEM leukemia): 25.6 µM
- TGI (CCRF-CEM leukemia): 75.5 µM
- GI50 (COLO 205 colon): 17.1 µM
- TGI (COLO 205 colon): 31.1 µM
- GI50 (DU-145 prostate): 31.3 µM
- TGI (DU-145 prostate): > 100 µM
- GI50 (EKVX NSCLC): 33.6 µM
- TGI (EKVX NSCLC): > 100 µM
- GI50 (HCC-2998 colon): 36.5 µM
- TGI (HCC-2998 colon): > 100 µM
- GI50 (HCT-116 colon): 26.5 µM
- TGI (HCT-116 colon): 78.8 µM
- GI50 (HCT-15 colon): 16.3 µM
- TGI (HCT-15 colon): 31.2 µM
- GI50 (HL-60(TB) leukemia): 24.8 µM
- TGI (HL-60(TB) leukemia): 55 µM
- GI50 (HOP-62 NSCLC): 44.3 µM
- TGI (HOP-62 NSCLC): > 100 µM
- GI50 (HOP-92 NSCLC): 29 µM
- TGI (HOP-92 NSCLC): 93.6 µM
- GI50 (HS 578T breast): 39.5 µM
- TGI (HS 578T breast): > 100 µM
- GI50 (HT29 colon): 15.8 µM
- TGI (HT29 colon): 33 µM
- GI50 (IGROV1 ovarian): 33.5 µM
- TGI (IGROV1 ovarian): > 100 µM
- GI50 (K-562 leukemia): 28.3 µM
- TGI (K-562 leukemia): 82.7 µM
- GI50 (KM12 colon): 17.7 µM
- TGI (KM12 colon): 32.7 µM
- GI50 (LOX IMVI melanoma): 16.6 µM
- TGI (LOX IMVI melanoma): 34.4 µM
- GI50 (M14 melanoma): 28.8 µM
- TGI (M14 melanoma): 86.8 µM
- GI50 (MALME-3M melanoma): 31.8 µM
- TGI (MALME-3M melanoma): 81 µM
- GI50 (MCF7 breast): 22.6 µM
- TGI (MCF7 breast): 59.6 µM
- GI50 (MDA-MB-231 breast): 26.7 µM
- TGI (MDA-MB-231 breast): > 100 µM
- GI50 (MDA-MB-435): 30.2 µM
- TGI (MDA-MB-435): 91.3 µM
- GI50 (MDA-N): 33 µM
- TGI (MDA-N): > 100 µM
- GI50 (MOLT-4 leukemia): 27.4 µM
- TGI (MOLT-4 leukemia): 65.9 µM
- GI50 (NCI-H226 lung): 31.7 µM
- TGI (NCI-H226 lung): > 100 µM
- GI50 (NCI-H23 lung): 16.8 µM
- TGI (NCI-H23 lung): 41.2 µM
- GI50 (NCI-H322M lung): 29.8 µM
- TGI (NCI-H322M lung): > 100 µM
- GI50 (NCI-H460 lung): 21.1 µM
- TGI (NCI-H460 lung): 48.4 µM
- GI50 (NCI-H522 lung): 12.5 µM
- TGI (NCI-H522 lung): 26.9 µM
- GI50 (NCI/ADR-RES ovarian): 27.6 µM
- TGI (NCI/ADR-RES ovarian): 96.5 µM
- GI50 (OVCAR-3 ovarian): 23.9 µM
- TGI (OVCAR-3 ovarian): 63.3 µM
- GI50 (OVCAR-4 ovarian): 34.7 µM
- TGI (OVCAR-4 ovarian): > 100 µM
- GI50 (OVCAR-5 ovarian): 36.8 µM
- TGI (OVCAR-5 ovarian): > 100 µM
- GI50 (OVCAR-8 ovarian): 18 µM
- TGI (OVCAR-8 ovarian): 41.4 µM
- GI50 (PC-3 prostate): 34 µM
- TGI (PC-3 prostate): > 100 µM
- GI50 (RPMI-8226 leukemia): 26.2 µM
- TGI (RPMI-8226 leukemia): 74 µM
- GI50 (RXF 393 renal): 23.1 µM
- TGI (RXF 393 renal): 54 µM
- GI50 (SF-268 CNS): 30.9 µM
- TGI (SF-268 CNS): 88.2 µM
- GI50 (SF-295 CNS): 44.7 µM
- TGI (SF-295 CNS): > 100 µM
- GI50 (SF-539 CNS): 33.8 µM
- TGI (SF-539 CNS): > 100 µM
- GI50 (SK-MEL-2 melanoma): 26.8 µM
- TGI (SK-MEL-2 melanoma): 81.2 µM
- GI50 (SK-MEL-28 melanoma): 49 µM
- TGI (SK-MEL-28 melanoma): > 100 µM
- GI50 (SK-MEL-5 melanoma): 18.9 µM
- TGI (SK-MEL-5 melanoma): 33.4 µM
- GI50 (SK-OV-3 ovarian): 40.4 µM
- TGI (SK-OV-3 ovarian): > 100 µM
- GI50 (SN12C renal): 36.9 µM
- TGI (SN12C renal): > 100 µM
- GI50 (SNB-19 CNS): 40 µM
- TGI (SNB-19 CNS): > 100 µM
- GI50 (SNB-75 CNS): 38.6 µM
- TGI (SNB-75 CNS): > 100 µM
- GI50 (SR leukemia): 47.1 µM
- TGI (SR leukemia): > 100 µM
- GI50 (SW-620 colon): 30.1 µM
- TGI (SW-620 colon): > 100 µM
- GI50 (T-47D breast): 30.4 µM
- TGI (T-47D breast): 99.1 µM
- GI50 (TK-10 renal): 26.1 µM
- TGI (TK-10 renal): > 100 µM
- GI50 (U251 CNS): 28.8 µM
- TGI (U251 CNS): 83.6 µM
- GI50 (UACC-257 melanoma): 25.2 µM
- TGI (UACC-257 melanoma): 76.5 µM
- GI50 (UACC-62 melanoma): 34.1 µM
- TGI (UACC-62 melanoma): > 100 µM
- GI50 (UO-31 renal): 41.6 µM
- TGI (UO-31 renal): > 100 µM

From PubChem BioAssay (NCI)
